From patent publication EP0005219A1, “Arylimidazoles, their synthesis and pharmaceutical or veterinary preparations containing them” (A/S Dumex (Dumex Ltd.), priority 1978, dated 1979)

Test: in vivo
Conditions: mouse, po

SMILES: COc1ccc(-c2nc(C(F)(F)F)[nH]c2-c2ccc(OC)cc2)cc1 [Compound 11, 2-Trifluormethyl-4,5-bis(p-methoxyphenyl)imidazole, reference compound]
- LD50 at 168 h: > 2000 mg/kg
